Earlier results in US20120134978A1, “Cross-Linking of Superoxide Dismutase Monomers” (Brandeis University, priority 2009, published 2012).

Tested on: mice
Settings: cited from earlier work

**Q.** With `O=C(CBr)CBr` as the compound, how does the “toxicity (LD50)” value read?
**A.** Its value is 3000 mg/kg.
